Measured values reported in US20120108557A1, “FLUOROQUINOLONE DERIVATIVES FOR OPHTHALMIC APPLICATIONS” (ALCON RESEARCH, LTD., priority 2008, published 2012).

Method: The procedure used is summarized below.
Female New Zealand Albino rabbits were sacrificed by first anaesthetizing with ketamine (30 mg/Kg) and xylazine (6 mg/Kg) followed by an injection of an overdose of […]* (sodium pentobarbital, 1 ml of a 26% solution) into the marginal ear vein. The intact eyes, along with the lids and conjunctival sacs were then enucleated and immediately stored in about 70 ml of fresh BSS PLUS® irrigation solution saturated with O2/CO2 (95:5).
To accomplish this, the exposed cornea of the enucleated eye was carefully placed on a corneal holder, which maintained the cornea curvature and held the eye in place. Various tissues of the eye were dissected leaving the cornea, a small ring of scleral tissue, and the palpebral conjunctiva. […]
Samples (150 μL) were withdrawn from the receiving chamber every 30 minutes over a five hour period, and an equal volume of irrigating solution was immediately added to the receiving chamber to maintain a constant volume. The concentration of fluoroquinolones in the samples was determined using reverse-phase HPLC. […] The mobile phase (acetonitrile:phosphate buffer v/v) and UV detection wavelengths for each of the fluoroquinolones was determined beforehand. […]
The rate of drug accumulation in the receiving (endothelial) chamber, and the apparent Permeability Coefficients (Papp) of the fluoroquinolones were then calculated as follows: […]

## moxifloxacin [reference compound]
  MEAN PERMEABILITY COEFFICIENT: 11.7 ×10⁻⁶ cm/s
